This is a selection; strong and weak results do not stand in their true shares. Active and inactive are the calls of the source.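 The calls were made as follows: active = activation above the average of all compounds screened plus 3 SD, cutoff fixed separately per campaign (cut at about 7.5% in these data); inactive = the rest.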
Assay: FXN promoter activators, primary screen, cell-based, luciferase luminescence, HEK293 lucGAA850 (AID 540364);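 also: 0% = DMSO wells and 100% = 10 µM SAHA wells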
Conditions: HEK293 lucGAA850 FXN promoter luciferase reporter, 24 h; at 6 µM; stronger effect = higher value; percent of 10 µM SAHA response

For `CC1(CBr)Cn2c(nc3ccccc3c2=O)S1` (stereo not drawn), which activation is on record?
The activation was inactive: 1.32%.

With `Cc1ccc(C(=O)OC2CN3CCC2CC3)cc1` (stereo not drawn) as the molecule, how does the activation read?
The activation was inactive: 0.6%.

Which activation does the source give for `CC1CCC(C(C)C)C(OP(=O)(Nc2ccccn2)c2ccccc2)C1` (stereo not drawn) here?
Its activation is inactive: -0.62%.

With `Cc1nn(-c2ccccc2)c2c1P(=O)(N1CCOCC1)N(C)C(c1ccccc1)=N2` (stereo not drawn) as the molecule, how does the activation read?
The activation was inactive: -0.59%.

Which activation does the source give for `CN(C)C1(CNC(=O)c2ccc(S(C)(=O)=O)cc2)CCCCC1` here?
Its activation is inactive: 1.37%.

Which activation does the source give for `CCCC1OP(=O)(Nc2ccccc2)OCC1CC` (stereo not drawn) here?
Its activation is inactive: -0.39%.

Which activation does the source give for `O=C(/C=C/c1ccccc1)OC1CN2CCC1CC2` (stereo not drawn) here?
The activation was inactive: -0.3%.

With `O=P1(Nc2ncccn2)COc2ccccc2OC1` as the molecule, how does the activation read?
The activation was inactive: -0.67%.

Which activation does the source give for `Nc1cccc([As](=O)(O)c2ccccc2)c1` here?
Its activation is inactive: 1.12%.

Which activation does the source give for `NS(=O)(=O)c1cccc(NC(=O)COC(=O)C(O)(c2ccccc2)c2ccccc2)c1` here?
Its activation is inactive: 0.16%.

With `O=P1(Nc2ccc(Br)cn2)COc2ccccc2OC1` as the molecule, how does the activation read?
Its activation is inactive: -1.02%.

With `O=[As](O)(c1cccs1)c1cccs1` as the molecule, how does the activation read?
The activation was inactive: 2.19%.

For `Cc1ccc(OCC(=O)OC2CN3CCC2CC3)cc1` (stereo not drawn), which activation is on record?
The activation was inactive: -1.01%.

Which activation does the source give for `O=C(O)C(O)c1ccc(N(CCCl)CCCl)cc1` (stereo not drawn) here?
The activation was inactive: 0%.

For `CCOC(=O)Nc1ccc([As](=O)(O)O)c(O)c1`, which activation is on record?
Its activation is inactive: 0.14%.

For `CC1CCNP(=O)(N(CCCl)CCCl)O1` (stereo not drawn), which activation is on record?
Its activation is inactive: -0.7%.

Which activation does the source give for `COP(=O)(OC)N1CC1c1ccccc1` (stereo not drawn) here?
The activation was inactive: -0.8%.

For `Cc1cc(SC(NC(=O)c2ccccc2)C(Cl)(Cl)Cl)nc(C(C)C)n1` (stereo not drawn), which activation is on record?
Its activation is inactive: 0.74%.

With `CCCCOc1ccc(C(=O)NCC2(N3CCCCC3)CCCCC2)cc1OC` as the molecule, how does the activation read?
Its activation is inactive: -0.05%.

With `CCOC(=O)Nc1cccc([As](=O)(O)O)c1` as the molecule, how does the activation read?
Its activation is inactive: 1.04%.

For `Cc1cc(SC(NC=O)C(Cl)(Cl)Cl)ncn1` (stereo not drawn), which activation is on record?
The activation was inactive: 2.55%.

With `O=P(Nc1ccccn1)(c1cccc2ccccc12)c1cccc2ccccc12` as the molecule, how does the activation read?
The activation was inactive: 4.43%.

Which activation does the source give for `O=[N+]([O-])c1ccc(Nc2ccc(Oc3ccc([N+](=O)[O-])cc3[N+](=O)[O-])cc2)c([N+](=O)[O-])c1` here?
Its activation is inactive: 2.84%.

With `COP1(=S)c2c(C)nn(CCC#N)c2N=C(c2ccc(F)cc2)N1C` (stereo not drawn) as the molecule, how does the activation read?
The activation was inactive: 1.13%.

For `O=C(O)C(=O)c1ccc(N(CCCl)CCCl)cc1`, which activation is on record?
The activation was inactive: 3.67%.

Which activation does the source give for `O=C(Nc1ccncc1[N+](=O)[O-])c1ccc([N+](=O)[O-])cc1[N+](=O)[O-]` here?
Its activation is inactive: -1.72%.

For `O=C(COc1ccccc1)OC1CN2CCC1CC2` (stereo not drawn), which activation is on record?
Its activation is inactive: -0.05%.

For `CSc1ccc(Nc2c([N+](=O)[O-])cc([N+](=O)[O-])cc2[N+](=O)[O-])cc1`, which activation is on record?
The activation was inactive: -1.16%.

With `O=C(OC1CN2CCC1CC2)c1cccc([N+](=O)[O-])c1` (stereo not drawn) as the molecule, how does the activation read?
The activation was inactive: 0.93%.

For `CCOC(=O)c1ccc(NC(=O)C(C)(CCl)SC)cc1` (stereo not drawn), which activation is on record?
The activation was inactive: 1.73%.

Which activation does the source give for `CCC(C)N(CC(C)C)C(=S)SC(NC(C)=O)C(Cl)(Cl)Cl` (stereo not drawn) here?
The activation was inactive: 0.5%.

Which activation does the source give for `Cc1c2c(nc3ccccc13)SC(C(Cl)Cl)C2` (stereo not drawn) here?
The activation was inactive: 0.67%.

With `Cc1cc(=O)[nH]c(N[N+](=O)[O-])n1` as the molecule, how does the activation read?
The activation was inactive: 1.97%.

With `O=C(OC1CN2CCC1CC2)C12CC3CC(CC(C3)C1)C2` (stereo not drawn) as the molecule, how does the activation read?
The activation was inactive: 0.16%.

Which activation does the source give for `O=P1(N(CCCl)CCCl)Nc2ccccc2N1` here?
The activation was inactive: 4.24%.

For `O=P1(N(CCCl)CCCl)OCCCN1CCCl` (stereo not drawn), which activation is on record?
The activation was inactive: 1.2%.

For `COc1cc(I)ccc1[As](=O)(O)O`, which activation is on record?
The activation was inactive: 3.16%.

With `COc1ccc2nc(NP(=O)(c3ccccc3)c3ccccc3)sc2c1` as the molecule, how does the activation read?
Its activation is inactive: 0.27%.

For `O=[N+]([O-])c1cc(Oc2ccc([N+](=O)[O-])cc2C(F)(F)F)cc([N+](=O)[O-])c1`, which activation is on record?
Its activation is inactive: 0.21%.

With `COc1ccc(N/C(=N/P(=O)(N2CCOCC2)N2CCOCC2)N2CCOCC2)cc1` as the molecule, how does the activation read?
Its activation is inactive: -1.04%.

Which activation does the source give for `COc1cc(C(=O)NCC2(N3CCOCC3)CCCCC2)ccc1OCC(C)C` here?
The activation was inactive: 1.5%.

Which activation does the source give for `O=[N+]([O-])c1ccc(-c2cc([N+](=O)[O-])c(O)c([N+](=O)[O-])c2)cc1` here?
The activation was inactive: 1.59%.

For `C[As](=O)(O)c1cccc(C(=O)O)c1`, which activation is on record?
The activation was inactive: 0.25%.

With `O=[As](O)(c1ccc(O)cc1)c1ccccc1O` as the molecule, how does the activation read?
Its activation is inactive: 1.07%.

Which activation does the source give for `Cc1ccc(OP(=O)(Nc2ccc([N+](=O)[O-])cn2)Oc2ccc(C)cc2)cc1` here?
Its activation is inactive: 2.03%.

With `Cc1ccc2nc3c(c(C)c2c1)CC(C(Cl)Cl)S3` (stereo not drawn) as the molecule, how does the activation read?
The activation was inactive: 2.68%.

For `ClCCSc1nnc(-c2cccnc2)o1`, which activation is on record?
The activation was inactive: 2.81%.

Which activation does the source give for `CC(C)c1ccc(OP(=O)(Nc2ccccn2)Oc2ccccc2F)cc1` (stereo not drawn) here?
The activation was inactive: 3.34%.

Which activation does the source give for `COC(=O)C1(C)COP(=O)(N2CCCCCC2)OC1` (stereo not drawn) here?
Its activation is inactive: -1.2%.

Which activation does the source give for `O=[N+]([O-])c1cc([N+](=O)[O-])c(-c2ccn[nH]2)s1` here?
Its activation is active: 8.38%.

With `O=C(OC1CN2CCC1CC2)c1cccc2[nH]cnc12` (stereo not drawn) as the molecule, how does the activation read?
Its activation is inactive: 4.03%.

With `CCN(CC)C(=S)SC(NC=O)C(Cl)(Cl)Cl` (stereo not drawn) as the molecule, how does the activation read?
The activation was inactive: -0.18%.

For `CC(C)NC(=O)NP(=O)(Oc1ccccc1)Oc1ccccc1`, which activation is on record?
The activation was inactive: 3.03%.
